The record followed here is patent US11420967B2 (priority 2018, dated 2022).

Sequences of proteins named here, by UniProt entry; tags and fusion partners are left off.
UniProt P34972, whole entry: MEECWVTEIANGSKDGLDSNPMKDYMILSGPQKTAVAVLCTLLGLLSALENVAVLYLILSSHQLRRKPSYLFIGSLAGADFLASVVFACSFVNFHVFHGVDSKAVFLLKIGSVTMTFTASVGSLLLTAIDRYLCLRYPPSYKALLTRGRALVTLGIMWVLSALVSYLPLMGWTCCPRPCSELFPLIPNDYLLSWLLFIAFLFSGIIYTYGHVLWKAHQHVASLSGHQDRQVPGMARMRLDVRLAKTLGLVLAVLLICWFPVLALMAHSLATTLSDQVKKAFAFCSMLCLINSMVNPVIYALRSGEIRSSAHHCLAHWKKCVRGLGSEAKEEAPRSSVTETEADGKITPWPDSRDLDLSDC

This test concerns the target T1, cannabinoid CB2 receptor (hCB2) (Homo sapiens, UniProt P34972).
T1 construct: expressed in transfected cells; host or cells: HEK293
The test is described as follows: β-arrestin recruitment in hCB2-transfected HEK293 cells. It counts as cell-based.

Consider `CCn1c2ccccc2c2cc(C(=O)c3ccc(C)c4ccccc34)ccc21` [Compound 8, 9-ethyl-3-[(4-methylnaphthalen-1-yl)carbonyl]-9H-carbazole], for which the “Agonist efficacy (% activation) CB2” value is reported as 8 % activation and the “Antagonist efficacy (% activation) CB2” value was 52 % activation.
